Experimental data as given in PubChem BioAssay AID743266 (National Center for Advancing Translational Sciences (NCATS), 2014).
The entries are a selection whose mix differs from that of the whole data set. Calls of active or inactive are those of the source. Calls follow the shape of the dose curve; as a rule, active = well fitted activation curve with a large enough effect; inconclusive = small, poorly fitted or top-dose-only effect, or another doubt; inactive = no such curve, though single readings can be large or run the other way.

Chains of the proteins cited; added tags and fusions are not shown.
UniProt Q03431, whole entry: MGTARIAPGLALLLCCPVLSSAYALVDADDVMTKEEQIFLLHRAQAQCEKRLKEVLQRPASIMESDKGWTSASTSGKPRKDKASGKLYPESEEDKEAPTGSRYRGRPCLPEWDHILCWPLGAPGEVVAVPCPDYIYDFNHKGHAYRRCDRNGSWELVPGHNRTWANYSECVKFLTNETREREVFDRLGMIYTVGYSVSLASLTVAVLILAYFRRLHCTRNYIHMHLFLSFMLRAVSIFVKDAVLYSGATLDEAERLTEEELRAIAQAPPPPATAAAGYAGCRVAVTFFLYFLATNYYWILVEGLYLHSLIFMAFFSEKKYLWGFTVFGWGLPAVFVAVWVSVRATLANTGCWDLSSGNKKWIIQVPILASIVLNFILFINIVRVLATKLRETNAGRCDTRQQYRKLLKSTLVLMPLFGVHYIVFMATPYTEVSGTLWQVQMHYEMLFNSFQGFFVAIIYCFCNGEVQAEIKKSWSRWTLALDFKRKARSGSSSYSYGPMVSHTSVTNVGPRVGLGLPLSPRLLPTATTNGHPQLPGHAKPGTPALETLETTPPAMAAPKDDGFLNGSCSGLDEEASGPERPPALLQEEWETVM

Each compound was assayed against Parathyroid hormone/parathyroid hormone-related peptide receptor (Homo sapiens) (UniProt Q03431) (assay: qHTS for PTHR1 Agonists: Primary Screen). Conditions: HEK293 GP2 PTHR1 cells, GloSensor cAMP luminescence, 1 h; activation: at 115 µM (top of the series) unless noted.
Also: nearly all actives have a fitted effect of over 55% in size.

Compound | activation | outcome
O=c1[nH]c2ccccc2n1C1CCN(C(c2cc3ccccc3o2)c2nnnn2C2CCCC2)CC1 (centres undefined) | inactive: -10% | –
CCCOc1ccc(C(=O)NCC2(N(C)C)CCCCC2)cc1 | inactive: -10.7% | –
COc1cc(C(=O)NCC2(N3CCOCC3)CCCCC2)cc(OC)c1OC | inactive | –
COc1cc(OC)cc(C(=O)NCC2(N3CCOCC3)CCCCC2)c1 | inactive: -1.45% | –
COc1cccc(C(c2nnnn2C2CCCC2)N2CCC(n3c(=O)[nH]c4ccccc43)CC2)c1OC (centres undefined) | inactive: -20.1% | –
COc1cccc(C(=O)N(c2cc(C)cc(C)c2)C2CCN(C(=O)OC(C)(C)C)CC2)c1 | inactive: -8.62% | –
CCC(CO)(C(=O)OC1CN2CCC1CC2)c1ccccc1 (centres undefined) | – | inactive [at 57.5 µM]
CN1CCC(Nc2ccc(Cl)cc2)CC1 | inactive | –
CCCCn1nnnc1C(c1ccccc1)N1CCC(n2c(=O)[nH]c3ccccc32)CC1 (centres undefined) | inactive: -18.4% | –
COc1cc(C(=O)NCC2(N3CCOCC3)CCCCC2)cc(OC)c1C | inactive | –
O=C(NCC1(N2CCOCC2)CCCCC1)c1cc(Br)ccc1Cl | inactive | –
O=c1[nH]c2ccccc2n1C1CCN(C(c2cccs2)c2nnnn2C2CCCCC2)CC1 (centres undefined) | inactive: -15.6% | –
COc1ccc(C(=O)NCC2(N3CCOCC3)CCCCC2)cc1OC | inactive | –
O=c1[nH]c2ccccc2n1C1CCN(C(c2ccnc3ccccc23)c2nnnn2C2CCCC2)CC1 (centres undefined) | inactive | –
CCOC(=O)N1CCC(Nc2ccc(C)cc2)CC1 | inactive | –
COc1cccc(C(c2nnnn2C(C)(C)C)N2CCC(n3c(=O)[nH]c4ccccc43)CC2)c1OC (centres undefined) | inactive | –
N/C(=N\O)c1c(N)no[n+]1[O-] | inactive: 17.9% [at 57.5 µM] | –

Compound | activation | outcome
CCc1cc(C(=O)NCC2(N3CCCCC3)CCCCC2)sc1C | inactive | –
O=C(OC1CN2CCC1CC2)C1c2ccccc2C=Cc2ccccc21 (centres undefined) | inactive | –
O=c1[nH]c2ccccc2n1C1CCN(C(c2cccs2)c2nnnn2C2CCCC2)CC1 (centres undefined) | inactive: -14.5% | –
O=C(O)c1cccc(Nc2c([N+](=O)[O-])cc([N+](=O)[O-])cc2[N+](=O)[O-])c1 | inactive: -3.95% | –
CCCCn1nnnc1C(c1cccc(OC)c1OC)N1CCC(n2c(=O)[nH]c3ccccc32)CC1 (centres undefined) | inactive: -20.1% | –
N#Cc1ccc(C(=O)NCC2(N3CCCCC3)CCCCC2)cc1 | inactive: -15.4% | –
O=C(NCC1(N2CCOCC2)CCCCC1)c1ccccc1[N+](=O)[O-] | inactive: -9.97% | –
CC(C)(C)OC(=O)N1CCC(N(C(=O)c2ccccc2)c2ccc(Cl)cc2)CC1 | inactive: -19.1% | –
O=C(NCC1(N2CCOCC2)CCCCC1)c1ccc([N+](=O)[O-])cc1 | inactive | –
CCOC(=O)C(CC)C1=NC(C)(C)Cc2ccccc21.O=[N+]([O-])c1cc([N+](=O)[O-])c(O)c([N+](=O)[O-])c1 (centres undefined) | inactive: -23.6% | –
CN(C)C1(CNC(=O)c2cccc(C#N)c2)CCCCC1 | inactive | –
c1ccc(CN2CCC(Nc3ccccc3)CC2)cc1 | inactive: -5.37% [at 57.5 µM] | –
O=c1[nH]c2ccccc2n1C1CCN(C(c2ccccc2)c2nnnn2C2CCCC2)CC1 (centres undefined) | inactive: -12.7% | –
CCCN1CCC(Nc2cc(OC)cc(OC)c2)CC1 | inactive: -1.26% | –
Cc1cc(N(CCCl)CCCl)ccc1C=O | inactive | –
O=C(NCC1(N2CCOCC2)CCCCC1)c1ccccc1 | inactive | –
CC(C)(C)n1nnnc1C(c1cccc2ccccc12)N1CCC(n2c(=O)[nH]c3ccccc32)CC1 (centres undefined) | inactive: -18.5% | –
